KDM4E inh = JMJD2E (human) inhibition | AID 2147 | JMJD2E catalytic domain, FDH-coupled NADH fluorescence (FDH is formaldehyde dehydrogenase) | Potency, µM (series often up to 57.1 µM), actives largely listed as inhibitors | B2RXH2 | hit rate 1.6% among 230,000; active = well fitted inhibition curve with a large enough effect, not every such curve was filed as active; inconclusive = small, poorly fitted or top-dose-only effect, or another doubt; inactive = no such curve, though single readings can be large or run the other way; also: nearly all actives have a fitted effect of over 50% in size
ALDH1A1 inh = ALDH1A1 (human) enzyme inhibition. P00352. Potency, µM (doses to about 75.3 µM), hits mostly inhibitors. hit rate 7.3% among 220,000. Purified ALDH1A1, NADH fluorescence, propionaldehyde substrate; active = well fitted inhibition curve with a large enough effect, not every such curve was filed as active; inconclusive = small, poorly fitted or top-dose-only effect, or another doubt; inactive = no such curve, though single readings can be large or run the other way
miR-21 reporter = miR-21 reporter, rising signal | HeLa miR-21 FLuc reporter, luciferase, 48 h | Potency, µM (top dose mostly 38.3 µM) | 340,000 tested, under 10 active | AID 2288; active = well fitted rising curve with a large enough effect; inconclusive = small, poorly fitted or top-dose-only effect; inactive = no such curve, though single readings can be large or run the other way;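 further: miR-21 action dims this reporter so a rising signal means less miR-21 action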
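HeLa cells stably expressing CMV-driven firefly luciferase with a downstream miR-21 binding sequence, endogenously expressing miR-21, were treated with titrations (up to about 40uM final) for 48 hours at 37 degree Celsius. Luciferase luminescence was read after lysis.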
G9a inh = inhibitors of human histone lysine methyltransferase G9a; G9a H3K9 monomethylation, AlphaScreen, 2 h; Q96KQ7; AID 504332; Potency, µM (series often up to 102 µM), usual class: inhibitors; hit rate 8.8% among 350,000; also: nearly all actives have a fitted effect of over 75% in size
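Enzyme 20 nM + cpd, 15 min RT; add b-H3K9 pep 500 nM / SAM 20 uM; 2 h RT; anti-H3K9me1 Ab 0.5 ug/mL + SA donor / anti-rabbit acceptor beads 20 ug/mL each, 10 min; AlphaScreen read.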
LMNA splice mod = LMNA splicing modulation; HeLa LMNA splicing GFP/RFP minigene ratio, 48 h; Potency, µM (titrated, usually from 46.1 µM), hits mostly inhibitors; hit rate 0.01% among 200,000; active = well fitted inhibition curve with a large enough effect in the signal ratio, with a control signal flat, not every such curve was filed as active; inconclusive = small, poorly fitted or top-dose-only effect, or effect the other way, or a change in a side signal; the % refers to the signal ratio
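Read-out is the ratio of GFP to DsRed2 object intensity, acquired by 488 nm laser-scanning cytometry on HeLa lamin A-EGFP minigene reporter cells. Compound incubation 48 hrs at 37 °C in Opti-MEM with 2% FBS; DMSO 0.5% final.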
Sfp inh = blocks B. subtilis Sfp PPTase activity | Q9F4F7 | Biochemical Sfp PPTase activity, qHTS | Potency, µM, usual class: inhibitors | hit rate 3.5% among 310,000 | AID 1490;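 also: the enzyme is Sfp with the accession as filed and its product quenches rhodamine fluorescence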
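Sfp 15 nM + cpd, 15 min RT; start w/ rhodamine-CoA 5 uM, BHQ-2-YbbR 12.5 uM (final); 50 mM Hepes pH 7.6, 10 mM MgCl2, 0.01% NP-40, 0.01% BSA; read 525/598 nm at 0 and 30 min.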
Each line names hits and unclear results; the compound was inactive in the other large screens; ! = not confirmed by another sample. This is a sample that favours compounds with a hit; in the whole collection about 13% have one here. Unless noted, calls follow the shape of the dose curve; as a rule, active = well fitted curve in the direction sought with a large enough effect; inconclusive = small, poorly fitted or top-dose-only effect, or another doubt; inactive = no such curve, though single readings can be large; an effect the other way counts as inactive or inconclusive.

COc1ccc(OC)c(N2C(=O)NC(=O)/C(=C/c3ccc([N+](=O)[O-])s3)C2=O)c1	KDM4E inh 25.1µM, ALDH1A1 inh inconclusive, G9a inh 11.2µM, LMNA splice mod inconclusive, Sfp inh 10µM
COc1cc2c(cc1OC)[C@@]13CCN4CC5=CCOC6CC(=O)N2C1[C@H]6[C@@H]5C[C@@H]43 (stereo partly specified)	LMNA splice mod inconclusive (no result: miR-21 reporter)
O=C1Nc2cc(Cl)c(Cl)cc2N2CCNC[C@H]12	ALDH1A1 inh inconclusive (no result: miR-21 reporter, G9a inh, LMNA splice mod)
CC(=O)O[C@H]1[C@H]2[C@@H](OC(=O)Cc3ccccc3)[C@@H](C)C[C@]2(OC(C)=O)C(=O)/C(C)=C/[C@@H]2[C@H](CC[C@@]13CO3)C2(C)C	none (no result: KDM4E inh, miR-21 reporter, LMNA splice mod)
O=C1C=CC(=O)C(Cl)=C1	ALDH1A1 inh 1.78µM, G9a inh 0.708µM, Sfp inh 3.98µM (no result: KDM4E inh, miR-21 reporter, LMNA splice mod)
O=C1C=CC(=O)C=C1	ALDH1A1 inh inconclusive, G9a inh inconclusive (no result: miR-21 reporter, Sfp inh)
O=C(O)C[C@H]1OCC=C2CN3CC[C@]45c6ccccc6N[C@@H]4[C@H]1[C@H]2C[C@H]35	none (no result: KDM4E inh, miR-21 reporter, G9a inh, LMNA splice mod, Sfp inh)
Oc1ccc2c3c1O[C@H]1c4[nH]c5c(c4C[C@@]4(O)[C@@H](C2)N(CC2CC2)CC[C@]314)C[C@@]1(O)[C@H]2Cc3ccc(O)c4c3[C@@]1(CCN2CC1CC1)[C@H]5O4	KDM4E inh inconclusive, G9a inh 14.1µM (no result: miR-21 reporter)
NC(N)=Nc1ccc2[nH]c3c(c2c1)C[C@]1(O)[C@@H]2Cc4ccc(O)c5c4[C@]1(CCN2CC1CC1)[C@@H]3O5	KDM4E inh inconclusive, ALDH1A1 inh 25.1µM (no result: miR-21 reporter, G9a inh, LMNA splice mod)
Oc1ccc2c3c1O[C@H]1c4[nH]c5ccccc5c4C[C@]4(O)[C@H](C2)N(CC2CC2)CC[C@@]314	none (no result: miR-21 reporter, G9a inh, LMNA splice mod)
COC(=O)C12CC3=CCC4C(=O)N(c5ccccc5)C(=O)C4C3Cc3ccccc3[C@@H]1CNC2=O (stereo partly specified)	none (no result: miR-21 reporter, G9a inh, LMNA splice mod)
O=C1NC(=O)C(=Cc2cn(CCOc3ccc4c(c3)OCO4)c3ccccc23)C(=O)N1	ALDH1A1 inh inconclusive, G9a inh inconclusive
O=C1NC(=O)C(=Cc2ccc(N3CCOCC3)cc2)C(=O)N1	KDM4E inh inconclusive, ALDH1A1 inh inconclusive, G9a inh 44.7µM (no result: LMNA splice mod)
NC(N)=N/N=C/c1ccc(N2CCOCC2)cc1	KDM4E inh inconclusive, ALDH1A1 inh inconclusive, G9a inh inconclusive
COc1cc(N2CCOCC2)ccc1/C=C1\C(=O)NC(=O)N(Cc2cccs2)C1=O	ALDH1A1 inh inconclusive, G9a inh 31.6µM (no result: LMNA splice mod)
O=C1NC(=O)C(=Cc2ccc3c(c2)OCO3)C(=O)N1	KDM4E inh inconclusive, ALDH1A1 inh inconclusive, G9a inh 50.1µM, Sfp inh 50.1µM (no result: LMNA splice mod)
COc1cc(N2CCOCC2)ccc1C=C1C(=O)NC(=O)NC1=O	ALDH1A1 inh 12.6µM, G9a inh 79.4µM, Sfp inh 56.2µM
CCSCC[C@H](N)C(=O)O	none (no result: KDM4E inh, miR-21 reporter, G9a inh, LMNA splice mod, Sfp inh)
CCOC(=O)c1cc(-c2ccccc2)n(CCCC(=O)Nc2ccc(C)c(C)c2)c1C	miR-21 reporter inconclusive, LMNA splice mod inconclusive (no result: KDM4E inh, ALDH1A1 inh, Sfp inh)
COc1cc(N2CCOCC2)ccc1/C=C1\C(=O)NC(=O)N(Cc2ccc3c(c2)OCO3)C1=O	ALDH1A1 inh inconclusive, G9a inh 39.8µM, Sfp inh inconclusive (no result: LMNA splice mod)
C=CCN1C(=O)NC(=O)/C(=C/c2c(CCN(C)C(=O)c3ccccc3)cc3c(c2OC)OCO3)C1=O	G9a inh inconclusive (no result: KDM4E inh, ALDH1A1 inh, LMNA splice mod)
Cc1cc(OCC(=O)N[C@H](C(=O)O)c2ccccc2)c2c3c(c(=O)oc2c1)CCC3	G9a inh 79.4µM (no result: KDM4E inh, ALDH1A1 inh, LMNA splice mod)
Cc1ccc(-n2nc(C)cc2NC(=O)COc2cc(C)cc3oc(=O)c4c(c23)CCC4)cc1	KDM4E inh inconclusive, ALDH1A1 inh inconclusive (no result: G9a inh)
Cc1cc(OCC(=O)Nc2c(C)n(C)n(-c3ccccc3)c2=O)c2c3c(c(=O)oc2c1)CCC3	KDM4E inh inconclusive, ALDH1A1 inh 3.16µM
CC[C@@H]1CN2CCc3cc(OC)c(OC)cc3[C@H]2C[C@@H]1C[C@H]1NCCc2cc(OC)c(OC)cc21	LMNA splice mod inconclusive (no result: miR-21 reporter)
S=c1[nH]nc(-c2ccn[nH]2)n1-c1ccccc1Cl	KDM4E inh inconclusive, G9a inh 3.16µM, Sfp inh 56.2µM (no result: ALDH1A1 inh, LMNA splice mod)
Cc1cccc(-n2c(C)n[nH]c2=S)c1C	G9a inh inconclusive
Oc1c(Cl)cccc1Cl	none (no result: KDM4E inh, miR-21 reporter, G9a inh, LMNA splice mod, Sfp inh)
NC(N)=N/N=C/c1c(Cl)cccc1Cl	LMNA splice mod inconclusive, Sfp inh 100µM!

Source: PubChem BioAssay (National Center for Advancing Translational Sciences (NCATS))
